Measured values taken from PMC4008364, “Alleviation of behavioral hypersensitivity in mouse models of inflammatory pain with two structurally different casein kinase 1 (CK1) inhibitors” (Molecular Pain, 2014).
Numbering of substitutions follows the chain as printed. pIC50: −log10 of the molar value.

Chains of the proteins cited; added tags and fusions are not shown. Residues count along the entry.
UniProt P49674, 9-277 limits assumed: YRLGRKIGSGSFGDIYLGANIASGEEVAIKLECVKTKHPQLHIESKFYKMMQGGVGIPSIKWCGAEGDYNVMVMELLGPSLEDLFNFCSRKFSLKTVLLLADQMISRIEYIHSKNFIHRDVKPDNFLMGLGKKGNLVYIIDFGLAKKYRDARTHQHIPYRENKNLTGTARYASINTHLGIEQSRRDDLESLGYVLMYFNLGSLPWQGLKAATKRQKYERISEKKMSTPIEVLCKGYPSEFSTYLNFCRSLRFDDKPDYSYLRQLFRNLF

Columns and labels:
[1] = molecular target: T1, CK1δ (Homo sapiens, UniProt P48730); experiment: In vitro kinase assay (QuickScout mobility shift assay), CK1δ; format: biochemical; conditions: substrate peptide CKtide; ATP at Km 7.7 μM; average of duplicated experiments
T1 construct: Catalytic domain of CK1δ was expressed as N-terminal GST-fusion protein in E. coli; GST (N); purchased Carna Biosciences, Inc; host or cells: E. coli
T1 sequence (P48730 9-277 limits assumed): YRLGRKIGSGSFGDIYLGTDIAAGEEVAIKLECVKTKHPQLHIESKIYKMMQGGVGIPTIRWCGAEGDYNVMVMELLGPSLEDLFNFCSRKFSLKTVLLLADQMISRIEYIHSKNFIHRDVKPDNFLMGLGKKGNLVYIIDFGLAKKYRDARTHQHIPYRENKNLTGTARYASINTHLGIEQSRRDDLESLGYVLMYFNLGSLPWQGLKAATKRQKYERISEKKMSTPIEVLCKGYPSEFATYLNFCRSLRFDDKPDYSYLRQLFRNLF
Excerpt: (§1) […]; Carna Biosciences, Inc., Kobe, Japan). Detailed information on the assay condition is available on the website of Carna Biosciences (http://www.carnabio.com). Full-length human CK1α, CK1γ1, CK1γ2, CK1γ3 and catalytic domain of human CK1ϵ were expressed as N-terminal GST-fusion protein using baculovirus system, and purified by using glutathione sepharose chromatography. Catalytic domain of CK1δ was expressed as N-terminal GST-fusion protein in E. coli, and purified by using glutathione sepharose chromatography.

[2] = molecular target: T2, human CK1ϵ (Homo sapiens, UniProt P49674); experiment: In vitro kinase assay (QuickScout mobility shift assay), CK1ϵ; format: biochemical; conditions: substrate peptide CKtide; ATP at Km 16 μM; average of duplicated experiments
T2 construct: catalytic domain of human CK1ϵ were expressed as N-terminal GST-fusion protein; GST (N); purchased Carna Biosciences, Inc; host or cells: baculovirus system (insect cells)
T2 sequence (P49674 9-277 limits assumed): T1 sequence (P48730 9-277 limits assumed) with T19A, D20N, A23S, I47F, T59S, R61K, A241S
Excerpt: as §1

Molecule CCN1/C(=C/C(C)=O)Sc2ccc(OC)cc21 [TG003] has a pIC50 [1] of 6.47 and a pIC50 [2] of 5.85.
